The numbers were not newly measured in patent US7771935B2, “Evolving new molecular function” (President and Fellows of Harvard College, priority 2002, dated 2010), which cites them from elsewhere.

This data set has as its target T1, papain (Carica papaya, UniProt P00784).
T1 construct: purchased Sigma
T1 sequence (P00784 134-345): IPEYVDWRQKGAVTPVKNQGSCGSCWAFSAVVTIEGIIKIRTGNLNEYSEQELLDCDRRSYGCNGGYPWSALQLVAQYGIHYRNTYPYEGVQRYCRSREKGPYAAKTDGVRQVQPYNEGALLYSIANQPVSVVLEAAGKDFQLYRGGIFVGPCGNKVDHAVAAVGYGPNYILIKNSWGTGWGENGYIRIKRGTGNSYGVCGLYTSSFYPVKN
The following applies: known binding of the free ligand; cited from earlier work.

Regarding `O=C(O)CCCC[C@@H]1SC[C@@H]2NC(=O)N[C@@H]21` [biotin], the affinity for papain result is “no significant affinity”.
